The record followed here is paper PMC11359831, “Stepwise Structural Simplification of the Dihydroxyanthraquinone Moiety of a Multitarget Rhein-Based Anti-Alzheimer Lead to Improve Drug Metabolism and Pharmacokinetic Properties” (Pharmaceutics, 2024).

Amino acid sequences for entries named in this document (tags omitted). Residues count along the entry.
UniProt P06276, 29-602: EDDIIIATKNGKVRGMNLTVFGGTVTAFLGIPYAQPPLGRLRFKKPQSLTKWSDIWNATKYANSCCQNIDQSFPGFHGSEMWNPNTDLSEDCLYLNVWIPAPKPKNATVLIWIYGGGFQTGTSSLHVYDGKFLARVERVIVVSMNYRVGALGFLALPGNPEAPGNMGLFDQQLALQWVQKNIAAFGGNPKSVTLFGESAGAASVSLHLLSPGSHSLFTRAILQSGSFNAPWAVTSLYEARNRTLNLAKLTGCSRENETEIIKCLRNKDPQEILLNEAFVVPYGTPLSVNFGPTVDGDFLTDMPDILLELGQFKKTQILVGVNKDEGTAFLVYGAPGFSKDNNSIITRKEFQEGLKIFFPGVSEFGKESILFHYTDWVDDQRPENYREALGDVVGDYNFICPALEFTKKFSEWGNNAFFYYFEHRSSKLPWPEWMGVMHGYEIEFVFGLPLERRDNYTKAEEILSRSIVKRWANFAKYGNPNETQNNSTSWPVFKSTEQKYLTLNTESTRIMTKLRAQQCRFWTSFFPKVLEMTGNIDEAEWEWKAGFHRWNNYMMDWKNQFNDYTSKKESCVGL

The nature of series [1]: Plasma stability, human plasma. The following applies: 37 °C, read-out: Plasma Stability % Remaining Compound, human, 6 h. The format is in vitro ADME. The procedure: The plasma stability of the new compounds was tested using in human, mouse, and rat plasma (Seralab). One hundred μL of 5 μM solutions of the new compounds in plasma were plated and incubated at 37 °C for 0, 60, 120, and 360 min, and then treated with 300 μL of acetonitrile and centrifuged (4000× g; 60 min; 4 °C). Sample quantification was performed by UPLC/MS/MS analysis of the resulting supernatant using a UPLC QSM Waters Acquity apparatus, equipped with a Waters ACQUITY BEH C18 1.7 μm 2.1 × 50 mm column, eluting with 0.1% formic acid in water or in acetonitrile, with a flow of 0.6 mL/min. The gradient indicated in Table 1 was used in this assay.
Compound concentration was calculated from the MS peak areas and expressed as the percentage of remaining compound at the different tested times.

The target of series [2] is T1, human serum BChE (hBChE) (Homo sapiens, UniProt P06276).
T1 construct: human serum BChE (hBChE); purchased Sigma (Milan, Italy); host or cells: human serum
The format is biochemical. To be noted: Ellman method, mean ± standard error. How it is done: The human recombinant AChE (hAChE) and human serum BChE (hBChE) inhibitory activities of the new compounds 4–7 were tested by the widely used method of Ellman, using enzymes supplied by Sigma (Milan, Italy). The stock and assay solutions were prepared as follows:
Stock hBChE solution: solution of the lyophilized powder in 0.1% aq. gelatin.
Stock solutions of the new compounds: 1 mM solutions in methanol, with further dilutions in this solvent to the desired concentrations.
Assay solutions: mixture of 340 μM 5,5′-dithiobis(2-nitrobenzoic acid), hAChE or hBChE (0.02 unit/mL), and 0.1 M potassium phosphate (pH 8.0)
Acetylthiocholine iodide or butyrylthiocholine iodide (550 μM), as substrates, were added to the assay solutions, with or without the compounds to be tested, previously preincubated for 20 min at 37 °C. […] A Jasco V-530 double-beam spectrophotometer, featuring cuvette holders kept at 37 °C, was used to monitor the initial rates at 412 nm. […]

As usually defined, the share remaining is what is left of the initial amount, in per cent. For the compound `CC1=CC2Cc3nc4cc(Cl)ccc4c(NCCCCCCCCCNC(=O)c4cc(O)c5c(c4)C(=O)c4cccc(O)c4C5=O)c3C(C1)C2` (centres unmarked) [Compound 3], the fraction remaining at 6 h, 5 μM in series [1] was 84.4%.
The term IC50 denotes the concentration at which inhibition is half-maximal. The low end stands for higher potency, the high end for lower potency. In turn, `CC1=CC2Cc3nc4cc(Cl)ccc4c(N)c3C(C1)C2` (centres unmarked) [HupY, huprine Y, reference compound] registered an IC50 in series [2] of 0.181 ± 0.015 µM.
